Measurements taken from publication PMC7744120 (Journal of the American Chemical Society, 2017).

By UniProt entry, the sequences of proteins in these tests, tags left out. Residues count along the entry.
UniProt P43220, 24-463: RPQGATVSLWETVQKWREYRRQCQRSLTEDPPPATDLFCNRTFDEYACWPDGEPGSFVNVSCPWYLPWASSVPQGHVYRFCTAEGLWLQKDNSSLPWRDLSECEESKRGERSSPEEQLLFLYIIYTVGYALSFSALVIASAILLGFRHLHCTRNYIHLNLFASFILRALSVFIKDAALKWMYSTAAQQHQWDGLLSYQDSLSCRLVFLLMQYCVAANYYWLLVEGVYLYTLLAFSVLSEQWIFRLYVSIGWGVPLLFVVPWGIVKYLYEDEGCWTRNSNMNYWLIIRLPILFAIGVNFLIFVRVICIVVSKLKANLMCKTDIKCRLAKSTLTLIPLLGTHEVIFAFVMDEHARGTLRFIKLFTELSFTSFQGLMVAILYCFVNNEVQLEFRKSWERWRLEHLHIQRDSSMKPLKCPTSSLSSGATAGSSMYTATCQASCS

Target: GLP-1R (Homo sapiens, UniProt P43220)
Assay: cAMP activation in DiscoveRx GLP-1R reporter cells
Assay type: cell-based
Details: GLP-1R cAMP EC50 relative to GLP-1-F7

Fold less potent than GLP-1-F7, cAMP activation: 16 fold
SMILES: CC[C@H](C)[C@H](NC(=O)[C@H](Cc1ccccc1)NC(=O)[C@H](CCC(=O)O)NC(=O)[C@H](CCCCN)NC(=O)[C@H](C)NC(=O)[C@H](C)NC(=O)[C@H](CCC(N)=O)NC(=O)CNC(=O)[C@H](CCC(=O)O)NC(=O)[C@H](CC(C)C)NC(=O)[C@H](Cc1ccc(O)cc1)NC(=O)[C@H](CO)NC(=O)[C@H](CO)NC(=O)[C@@H](NC(=O)[C@H](CC(=O)O)NC(=O)[C@H](CO)NC(=O)[C@@H](NC(=O)[C@H](Cc1ccccc1)NC(=O)[C@@H](NC(=O)CNC(=O)[C@H](CCC(=O)O)NC(=S)[C@H](C)NC(=O)[C@@H](N)Cc1ccccc1)[C@@H](C)O)[C@@H](C)O)C(C)C)C(=O)N[C@@H](C)C(=O)N[C@@H](Cc1c[nH]c2ccccc12)C(=O)N[C@@H](CC(C)C)C(=O)N[C@H](C(=O)N[C@@H](CCCCN)C(=O)NCC(=O)N[C@@H](CCCNC(=N)N)C(N)=O)C(C)C [GLP-1-F7A^S8]
